This assay has as its target Glutamate NMDA receptor. Kind of assay: Inhibition of NMDA-evoked intracellular calcium increase in rat cortical cells. Format: functional, cell-based.

These results are taken from ChEMBL document CHEMBL1141954, “Indole-2-carboxamidines as novel NR2B selective NMDA receptor antagonists” (Bioorg Med Chem Lett, 2005).

As usually defined, the IC50 is the midpoint of a concentration-inhibition curve. As for `O=C(/C=C/c1ccc(O)cc1)N1CCC(Cc2ccccc2)CC1`, the IC50 turned out to be 131 nM.
